Two compounds from patent publication US9023847B2, “Azaheterocyclic compounds” (Merck Patent GmbH, priority 2009, dated 2015) can be followed below.

Protein sequences, listed by entry. Tags and fused reporters are not part of them.
UniProt P23443, whole entry T412E: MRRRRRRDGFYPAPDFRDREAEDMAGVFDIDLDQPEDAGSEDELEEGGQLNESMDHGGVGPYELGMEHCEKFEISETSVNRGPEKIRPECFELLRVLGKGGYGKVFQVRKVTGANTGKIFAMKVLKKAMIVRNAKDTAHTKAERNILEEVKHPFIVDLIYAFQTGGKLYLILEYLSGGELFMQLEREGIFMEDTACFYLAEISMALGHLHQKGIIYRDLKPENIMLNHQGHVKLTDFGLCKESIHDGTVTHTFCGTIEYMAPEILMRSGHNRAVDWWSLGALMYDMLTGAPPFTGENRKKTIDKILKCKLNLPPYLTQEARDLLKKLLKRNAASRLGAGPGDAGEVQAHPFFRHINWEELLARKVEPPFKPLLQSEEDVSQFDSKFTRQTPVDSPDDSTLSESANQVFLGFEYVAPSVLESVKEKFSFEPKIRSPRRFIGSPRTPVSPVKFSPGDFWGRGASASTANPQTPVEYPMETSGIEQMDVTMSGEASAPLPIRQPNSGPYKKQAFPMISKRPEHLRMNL

This assay concerns the target P70S6K (T412E mutant, Millipore) (Homo sapiens, UniProt P23443, T412E). Put plainly: p70S6K enzyme assay. Particulars: read-out: IC50 (p70S6K); class symbol; 3 nM P70S6K, 24 μM ATP. As to the method:
P70S6K inhibitor compounds are diluted and plated in 96 well plates. A reaction mixture including the following components is then added to the compound plate to initiate the enzyme reaction; P70S6K (3 nM, T412E mutant, Millipore) is mixed with 24 μM ATP in an assay buffer containing 100 mM Hepes (pH 7.5), 5 mM MgCl2, 1 mM DTT, 0.015% Brij and 1 μM of the substrate peptide FITC-AHA-AKRRRLSSLRA-OH (derived from the S6 ribosomal protein sequence, FITC=fluorescein isothiocyanate, AHA=6-aminohexanoic acid). The reaction is incubated for 90 min at 25° C., before the addition of 10 mM EDTA to stop the reaction. The proportion of substrate and product (phosphorylated) peptide is analysed on a Caliper Life Sciences Lab Chip 3000, using a pressure of −1.4 psi, and upstream and downstream voltages of −3000 and −700 respectively. Product peaks are resolved before substrate peaks on the resulting chromatograms.

Molecules are shown by their SMILES.

Take `O=C(NCCNCc1cccc(Cl)c1)c1sccc1Nc1ccnc2[nH]ccc12`: the half-maximal inhibitory concentration (IC50) is below 100 nM.
In the case of `O=C(NCc1ccc(C(F)(F)F)c(Cl)c1)c1ccsc1Nc1ccnc2[nH]ccc12`, the concentration for half-maximal inhibition (IC50) is below 100 nM.
